According to patent US4594246A, “Pharmaceutically-acceptable amine salts of 6-β-halopenicillanic acids” (Leo Pharmaceutical Products, priority 1979, dated 1986):
Converted amounts (≈) assume the structure as drawn.

Assays:
[1] = test system: Bacillus subt. KA2; experiment: Antibacterial spectrum (Table I); conditions: serial dilutions in fluid medium, inoculum 10^ CFU (grampositive organism)
[2] = test system: Coryneb. xerosis FF; experiment: Antibacterial spectrum (Table I); conditions: serial dilutions in fluid medium, inoculum 10^ CFU (grampositive organism)

SMILES	IC50 [1] [µg/mL]	IC50 [2] [µg/mL]
CC1(C)S[C@@H]2[C@H](Br)C(=O)N2[C@H]1C(=O)O	5.0 (≈ 17.8 µM)	5.0 (≈ 17.8 µM)
CC1(C)S[C@@H]2[C@H](I)C(=O)N2[C@H]1C(=O)O	13 (≈ 39.7 µM)	16 (≈ 48.9 µM)
CC1(C)S[C@@H]2[C@H](Cl)C(=O)N2[C@H]1C(=O)O	7.9 (≈ 33.5 µM)	5.0 (≈ 21.2 µM)
